For test [1], the species on record is Mus musculus. Conditions: Swiss albino, 0.1 mg/kg.
The species entered for test [2] is Mus musculus. Conditions: Swiss albino, 0.1 mg/kg. This is another data set of the same source.
For test [3], the species on record is Mus musculus. The note with it: Swiss albino, 0.1 mg/kg. The source holds these as a separate data set.
The species named for test [4] is Mus musculus. Conditions: Swiss albino, 0.1 mg/kg. The source holds these as a separate data set.
The species named for test [5] is Mus musculus. Conditions: Swiss albino, 5 mg/kg.
The species named for test [6] is Mus musculus. Conditions: Swiss albino, 5 mg/kg. The source holds these as a separate data set.

From ChEMBL document CHEMBL1155976, “Synthesis and preliminary pharmacological evaluation of imidazo[2,1-f]purine-2,4-dione derivatives” (Eur J Med Chem, 2009) come the findings set out here.

Regarding `COc1ccccc1N1CCN(CCN(C(=O)C2CCCCC2)c2ccccn2)CC1`, the deltaT was determined as 0.2 °C in the test listed under Mus musculus [1]; 0.2 °C in the test filed under Mus musculus [2]; 0.1 °C in the test listed under Mus musculus [3]; 0.2 °C in the test listed under Mus musculus [4]; 0.1 °C in the test filed under Mus musculus [5].
In turn, `CCCN(CCC)C1CCc2cccc(O)c2C1` (stereo unspecified) registered a deltaT in the test listed under Mus musculus [6] of -0.1 °C.
